Some of the results follow. Inconclusive results are not listed. Activity calls are given as the source filed them. Rule as the data show it: active = potentiation above about 80%; inconclusive = between about 30% and that limit; inactive = weaker than that.

Protein sequences, listed by entry. Tags and fused reporters are not part of them.
UniProt Q8NER1, whole entry: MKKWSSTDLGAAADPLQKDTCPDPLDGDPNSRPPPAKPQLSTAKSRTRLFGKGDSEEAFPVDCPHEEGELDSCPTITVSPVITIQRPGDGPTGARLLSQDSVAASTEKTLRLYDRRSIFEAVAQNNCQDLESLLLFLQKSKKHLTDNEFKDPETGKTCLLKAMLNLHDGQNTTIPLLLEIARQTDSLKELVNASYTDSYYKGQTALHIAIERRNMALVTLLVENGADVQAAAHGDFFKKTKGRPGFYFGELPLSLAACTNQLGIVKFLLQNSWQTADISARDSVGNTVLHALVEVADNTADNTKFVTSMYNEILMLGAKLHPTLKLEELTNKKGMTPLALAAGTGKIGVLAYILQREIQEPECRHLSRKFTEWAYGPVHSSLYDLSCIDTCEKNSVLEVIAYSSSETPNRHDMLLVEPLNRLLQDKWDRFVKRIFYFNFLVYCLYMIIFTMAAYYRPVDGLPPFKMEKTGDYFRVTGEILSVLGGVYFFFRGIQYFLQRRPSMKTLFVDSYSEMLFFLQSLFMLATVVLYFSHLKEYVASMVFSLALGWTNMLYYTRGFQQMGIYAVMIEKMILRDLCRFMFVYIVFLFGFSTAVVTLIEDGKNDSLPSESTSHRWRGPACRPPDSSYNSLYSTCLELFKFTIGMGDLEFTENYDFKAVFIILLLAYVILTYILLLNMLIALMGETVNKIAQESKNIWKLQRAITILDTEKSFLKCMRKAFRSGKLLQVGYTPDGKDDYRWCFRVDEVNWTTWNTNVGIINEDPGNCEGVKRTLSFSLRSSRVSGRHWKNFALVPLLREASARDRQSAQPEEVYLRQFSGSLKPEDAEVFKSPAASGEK

The target of the experiment is Transient receptor potential cation channel subfamily V member 1 (Homo sapiens) (UniProt Q8NER1). Description: HTS Assay for Compounds that Act as Potentiators of the Vanilloid Receptor 1. Also: 0% is about no effect. The following applies: TRPV1-expressing cells, Fluo-8 calcium influx, capsaicin EC20 potentiation; at 8.33 µM; stronger effect = higher value. The source says:
The transient receptor potential ion channel, family V, number 1, (TRPV1) is one of the most important molecular transducers of painful stimuli and a potential target for analgesic drug development. Although recent clinical trials with orthosteric antagonists have not produced a successful drug because of a hyperthermia side effect and their tendency to block thermal noxious pain, this ion channel is undeniably well placed in the pain pathway, and the idea of blocking pain signals before they enter the CNS is an excellent concept and of proven efficacy when TRPV1 agonists are used. We propose a new approach involving allosteric modulation to impose an activity-dependent constraint within the context of inflammation and tissue damage that would alter the responsiveness of the channel in a way that an orthosteric vanilloid antagonist cannot achieve. We believe that the allosteric modulator approach has not been explored for this target. The main goal of this proposal is to identify additional, new, potent allosteric modulators of TRPV1 that can be used to investigate TRPV1 function. Our recent report provides evidence of proof of concept, but the compounds are just at the edge of utility in terms of potency. […] The question of whether they can be used as analgesic agents is complex, but if suitable compounds are identified then testing for analgesic properties will be conducted. NIH Chemical Genomics Center [NCGC] NIH Molecular Libraries Probe Centers Network [MLPCN] MLPCN Grant: MH089480-1A1 Assay Submitter (PI): Michael Iadarola, National Institute of Dental and Cranofacial Research
Upon TRPV1 activation in TRPV1 cells, the channel opens and extracellular cations flow through the channel into the cytosol. A calcium binding dye (Fluo-8) becomes fluorescent when bound to calcium. This dye is pre-loaded into cells and is used as a marker for calcium influx. The amount of accumulated calcium is precisely quantified using the FDSS kinetic reader and the calcium dye. For the HTS assay, freshly prepared cells are plated at a density of 2000/well in 3 ul medium in 1536-well plates and cultured overnight at 35.5C. Cells will be loaded with 1 ul of the homogeneous calcium dye (ABD Bioquest) at room temperature for 40 to 90 minutes. Plates will be loaded into the FDSS kinetic reader and a 1 sec / cycle for 10 second baseline signal will be measured. Compound library will then be added with a pintool at 23 nl and measured kinetically for 3 minutes. This portion of the read is considered the agonist portion of the screen. Following the 3 minutes of incubation, an on board pipettor will deliver 1 ul of capsaicin for a final concentration equal to the EC20. Signal will be measured kinetically for an additional 2 minutes. This portion of the read is considered the allosteric enhancer portion of the screen. The FDSS reader has a standard filter set capable of measuring calcium bound Fluo-8 (ex=480 and em=520 nm).
For `O=C(/C=C/c1ccccc1)OC1CN2CCC1CC2` (stereo not given), the potentiation is inactive: -5.9%. As for `CN(C)C1(CNC(=O)c2ccc(S(C)(=O)=O)cc2)CCCCC1`, the figure is inactive: -9.21%; as for `CC1=C2N=C(C=C3N=C(C(C)=C4[N-][C@@](C)([C@@H]5N=C1[C@](C)(CCC(=O)NC[C@@H](C)OP(=O)([O-])O[C@H]1[C@@H](O)[C@@H](n6cnc7cc(C)c(C)cc76)O[C@@H]1CO)[C@H]5CC(N)=O)[C@@](C)(CC(N)=O)[C@@H]4CCC(N)=O)[C@@](C)(CC(N)=O)[C@@H]3CCC(N)=O)C(C)(C)[C@@H]2CCC(N)=O.[C-]#N.[Co+3]`, inactive: -6.09%; as for `O=[N+]([O-])c1cc([N+](=O)[O-])c(Nc2nnnn2CCO)c([N+](=O)[O-])c1`, inactive: 5.36%. As for `COc1cc(C2NCCC3(OCCO3)C2(C)C)cc(OC)c1OC.O=[N+]([O-])c1cc([N+](=O)[O-])c(O)c([N+](=O)[O-])c1` (stereo not given), the figure is inactive: -3.07%; as for `CC1CCC(C(C)C)C(OP(=O)(Nc2ccccn2)c2ccccc2)C1` (stereo not given), inactive: 7.12%. On to `Cc1nn(-c2ccccc2)c2c1P(=O)(N1CCOCC1)N(C)C(c1ccccc1)=N2` (stereo not given), for which the potentiation was inactive: -7.59%.

For the molecule `Cc1ccc(OCC(=O)OC2CN3CCC2CC3)cc1` (stereo not given), the potentiation was inactive: 11.5%.

Turning to `O=[As](O)(c1cccs1)c1cccs1`, the potentiation was inactive: 20.2%.

Turning to `O=P1(Nc2ccc(Br)cn2)COc2ccccc2OC1`, the potentiation was inactive: -14.4%.

Regarding `NS(=O)(=O)c1cccc(NC(=O)COC(=O)C(O)(c2ccccc2)c2ccccc2)c1`, the potentiation was inactive: 6.86%. In the case of `CCCOc1ccc(NP(C)(=O)Oc2ccc(Cl)cc2)cc1` (stereo not given), the potentiation is inactive: 5.39%. As for `Nc1cccc([As](=O)(O)c2ccccc2)c1`, the figure is inactive: 5.45%; as for `CP(=O)(Nc1ccc(SC(F)(F)F)cc1)Oc1ccccc1` (stereo not given), inactive: -13.5%; as for `COc1ccccc1OP(C)(=O)Nc1c(C)cccc1C` (stereo not given), inactive: 2.57%.

`CN1CCCCC1COC(=O)C1(O)c2ccccc2CCc2ccccc21` (stereo not given): the potentiation is inactive: -0.057%. Then `O=P1(Nc2ncccn2)COc2ccccc2OC1`, with inactive: 0.0034%. Then `CC(C)(C)C(=O)NC(Sc1ncccn1)C(Cl)(Cl)Cl` (stereo not given), with inactive: -2.78%; and `Clc1n[nH]nc1-c1nn[nH][15n]1`, with inactive: -10.8%; and `CCOP(=O)(Nc1ccc(C)cn1)OCC`, with inactive: -1.86%. Turning to `O=[N+]([O-])c1cc([N+](=O)[O-])c(-n2nnc3ccccc32)c([N+](=O)[O-])c1`, the potentiation was inactive: -5.45%. As for `CCOP(=O)(NC(=NC(C)c1ccccc1)NC(C)c1ccccc1)OCC` (stereo not given), the figure is inactive: -28.5%; as for `O=P1(Nc2ccccn2)COc2ccccc2OC1`, inactive: 2.73%; as for `CCC1=CC2Cc3nc4ccc(Cl)cc4c(N)c3C(C1)C2` (stereo not given), inactive: 6.89%. As for `Cc1nc2ccc3ccccc3c2s1.O=[N+]([O-])c1cc([N+](=O)[O-])c(O)c([N+](=O)[O-])c1`, the figure is inactive: -18.2%; as for `O=[As](O)(c1ccccc1Br)c1ccccc1Br`, inactive: -7.15%; as for `CC(C)/C=N\N=C(\N)N[N+](=O)[O-]`, inactive: 12.7%. As for `CN(C(=O)Cc1ccc(Cl)c(Cl)c1)[C@@H]1CCCC[C@H]1N1CCCC1`, the potentiation is inactive: -5.77%. As for `COc1ccccc1CNC(=O)COC(=O)C(O)(c1ccccc1)c1ccccc1`, the figure is inactive: -5.33%; as for `CCOC(=O)c1ccc(NP(C)(=O)Oc2cc(C)cc(C)c2)cc1` (stereo not given), inactive: 2.1%; as for `Cc1cc(C)cc(OP(C)(=O)Nc2ccc(C)cc2C)c1` (stereo not given), inactive: 17.8%. Regarding `Cc1cccc(OCC(=O)OC2CN3CCC2CC3)c1` (stereo not given), the potentiation is inactive: 19.8%.

For the molecule `COc1ccccc1OP(C)(=O)Nc1cccc(Br)c1` (stereo not given), the potentiation was inactive: -9.49%.

For `CS(=O)(=O)c1ccc(Cl)c(NC(=O)COC(=O)C(O)(c2ccccc2)c2ccccc2)c1`, the potentiation is inactive: 7.09%.

As for `O=[As](O)(O)c1cccnc1`, the potentiation is inactive: 3.69%. As for `COc1cc(C(=O)NCC2(N3CCOCC3)CCCCC2)cc(Cl)c1OC(C)C`, the figure is inactive: -33.4%; as for `O=C(OC1CN2CCC1CC2)c1ccc(Cl)cc1` (stereo not given), inactive: -5.94%.

On to `CCOP(=O)(Nc1cccc2ccccc12)OCC`, for which the potentiation was inactive: 1.07%. Take `Cc1ccc(C)c(NP(C)(=O)Oc2ccccc2)c1` (stereo not given): the potentiation was inactive: 28.5%. For `CCCOP(=S)(Nc1nc(N)cc(=O)[nH]1)OCCC`, the potentiation was inactive: 1.64%. On to `Cc1ccc(NCCc2c([N+](=O)[O-])cc([N+](=O)[O-])cc2[N+](=O)[O-])cc1`, for which the potentiation was inactive: 0.851%. Then `Nc1cccc2c([As](=O)(O)O)cccc12`, with inactive: -2.16%; and `Cc1cc(C)cc(OP(C)(=O)Nc2ccccn2)c1` (stereo not given), with inactive: 1.05%. Then `CP(=O)(Nc1cccc(Br)c1)Oc1ccccc1` (stereo not given), with inactive: -9.97%; and `Nc1ccccc1[As](=O)(O)c1ccccc1`, with inactive: 5.41%. As for `O=C(O)COc1ccc([As](=O)(O)O)cc1[N+](=O)[O-]`, the figure is inactive: 4.17%; as for `O=P(Nc1nccs1)(Oc1ccccc1)Oc1ccccc1`, inactive: 24.9%; as for `O=P(Nc1nccs1)(c1ccccc1)c1nc2ccccc2s1` (stereo not given), inactive: 23.7%. On to `CCOP1(=S)c2c(C)nn(CCC#N)c2N=C(c2ccccc2F)N1C` (stereo not given), for which the potentiation is inactive: -9.26%. As for `CC1=NCCc2c1[nH]c1ccccc21.O=[N+]([O-])c1cc([N+](=O)[O-])c(O)c([N+](=O)[O-])c1`, the figure is inactive: 0.821%.

For `O=[N+]([O-])c1ccc2c(c1)nnn2O`, the potentiation is inactive: -5.24%. As for `CCOP1(=S)c2c(C)nn(CCC#N)c2N=C(c2ccc(F)cc2)N1C` (stereo not given), the figure is inactive: -23.9%. Then `CN(C(=O)Cc1ccccc1)[C@@H]1CC[C@]2(CCCO2)C[C@H]1N1CCCC1`, with inactive: -2.5%; and `N#CCCN(C(=O)COC(=O)C(O)(c1ccccc1)c1ccccc1)c1ccc(F)cc1`, with inactive: 4.05%. As to `NC(=O)Nc1ccc([As](=O)(O)O)cc1`, the potentiation is inactive: -5.6%.

For `O=[N+]([O-])c1ccc2c(c1)C=Nc1ccccc1O2`, the potentiation was inactive: 1.61%. Then `Cc1ccc2nc3c(c(C)c2c1)CC(C(Cl)Cl)S3` (stereo not given), with inactive: -3.63%; and `Cc1cccc(C)c1OP(C)(N)=O` (stereo not given), with inactive: -13%. Then `Cc1ccc(OP(=O)(Nc2ccc([N+](=O)[O-])cn2)Oc2ccc(C)cc2)cc1`, with inactive: 5.7%. With `CC(C)(C)c1ccc(OP(C)(=O)Nc2ccc(SC(F)(F)F)cc2)cc1` (stereo not given), the potentiation is inactive: 2.73%. Then `COc1cc(C(=O)NCC2(N3CCOCC3)CCCCC2)ccc1OCC(C)C`, with inactive: -6.85%; and `C[As](=O)(O)c1cccc(C(=O)O)c1`, with inactive: 6.76%. Then `O=[As](O)(c1ccc(O)cc1)c1ccccc1O`, with inactive: -13.2%; and `O=[N+]([O-])c1cc([N+](=O)[O-])c(Nc2cccnc2)c([N+](=O)[O-])c1`, with inactive: 25.3%; and `Cc1cc(C)cc(OP(C)(N)=O)c1` (stereo not given), with inactive: 26.2%. As for `COc1ccc(OP(C)(=O)Nc2cccc(F)c2)cc1` (stereo not given), the figure is inactive: 1.46%; as for `O=[N+]([O-])c1cc([N+](=O)[O-])c(-c2ccn[nH]2)s1`, inactive: -2.7%. For `COc1ccccc1OP(C)(=O)Nc1cc(Cl)ccc1C` (stereo not given), the potentiation was inactive: 2.54%. As for `CC(C)NC(=O)NP(=O)(Oc1ccccc1)Oc1ccccc1`, the figure is inactive: 9.58%; as for `CCN(CC)C(=S)SC(NC=O)C(Cl)(Cl)Cl` (stereo not given), inactive: -13.8%; as for `Cc1ccc(NP(C)(=O)Oc2ccccc2)c(C)c1` (stereo not given), inactive: 4.11%. Then `CC(C)c1ccc(OP(=O)(Nc2ccccn2)Oc2ccccc2F)cc1` (stereo not given), with inactive: -10.4%; and `COc1ccccc1OP(C)(=O)Nc1ccc(C)cc1` (stereo not given), with inactive: 15.9%; and `ClCCSc1nnc(-c2cccnc2)o1`, with inactive: 2.38%. Then `COc1cc(I)ccc1[As](=O)(O)O`, with inactive: -4.26%; and `COc1ccc2nc(NP(=O)(c3ccccc3)c3ccccc3)sc2c1`, with inactive: -2.25%; and `Cc1cc(=O)[nH]c(N[N+](=O)[O-])n1`, with inactive: -6.18%.

As for `CCN(CC)CCCOC(=O)C(O)(c1ccccc1)c1ccccc1`, the potentiation is inactive: -7.24%. Regarding `Cc1c2c(nc3ccccc13)SC(C(Cl)Cl)C2` (stereo not given), the potentiation was inactive: -18.7%.

Turning to `COc1ccc(N/C(=N/P(=O)(N2CCOCC2)N2CCOCC2)N2CCOCC2)cc1`, the potentiation was inactive: 3.7%. Consider `O=C(Nc1ccncc1[N+](=O)[O-])c1ccc([N+](=O)[O-])cc1[N+](=O)[O-]`, for which the potentiation was inactive: 2.12%. As for `Cc1cc(C)cc(OP(C)(=O)Nc2ccc(SC(F)(F)F)cc2)c1` (stereo not given), the figure is inactive: 3.09%. As for `CP(=O)(NC(=O)Nc1ccccc1)Oc1ccccc1` (stereo not given), the figure is inactive: 4.94%; as for `CCc1ccc(OP(C)(=O)N2CCN(c3ccc([N+](=O)[O-])cc3)CC2)cc1` (stereo not given), inactive: -26.3%; as for `CP(=O)(Oc1ccccc1)OC(c1ccccc1)C(F)(F)F` (stereo not given), inactive: -20.9%. As for `COP1(=S)c2c(C)nn(CCC#N)c2N=C(c2ccc(F)cc2)N1C` (stereo not given), the figure is inactive: -10.7%; as for `Cc1cccc(C)c1OP(C)(=O)Nc1ccc(SC(F)(F)F)cc1` (stereo not given), inactive: -3.81%. Turning to `CP(=O)(Nc1ccc(SC(F)(F)F)cc1)Oc1ccc(Cl)cc1` (stereo not given), the potentiation was inactive: -4.8%. As for `CP(=O)(Nc1ccccn1)Oc1ccc(Cl)cc1` (stereo not given), the figure is inactive: 0.614%; as for `CCOP(=O)(Nc1cccc2cccnc12)OCC`, inactive: 2.81%. As for `CCOC(=O)c1ccc(NC(=O)C(C)(CCl)SC)cc1` (stereo not given), the figure is inactive: 0.435%. Then `CCOC(=O)c1ccc(NP(C)(=O)Oc2ccc(OC)cc2)cc1` (stereo not given), with inactive: 24%. `O=C(OC1CN2CCC1CC2)c1cccc([N+](=O)[O-])c1` (stereo not given): the potentiation is inactive: -9.95%. Then `CCOP(C)(=S)SCC(=O)NC(C)C(=O)O` (stereo not given), with inactive: -6.21%. Then `Cc1cc(SC(NC(=O)c2ccccc2)C(Cl)(Cl)Cl)nc(C(C)C)n1` (stereo not given), with inactive: 9.55%.

(Values after PubChem BioAssay AID540277 (National Center for Advancing Translational Sciences (NCATS), 2011).)
